Experimental data taken from patent US6447754B1, “Oral rinse methods and compositions” (AkPharma Inc., priority 2000, dated 2002).

Key:
[1] = in water; cited from earlier work
[2] = Solubility of CGP in water; assay type: physicochemical; details: compared to other calcium salts
Protocol: CGP is odorless, almost tasteless, and forms a fine, slightly hygroscopic powder. CGP may also be formed into tablets, and may be dissolved into water. The solubility of CGP is about 1 gram in about 50 mL of water. […] Thus, CGP is known in the art to be useful as a dietary supplement for calcium and phosphorus and/or phosphate, where CGP contains 19 wt % calcium.
The CGP may be used alone or in combination with other calcium salts, such as calcium carbonate, calcium acetate, calcium oxide, calcium hydroxide, calcium phosphate, calcium lactate and calcium citrate. As CGP is relatively expensive, combining CGP with one or more calcium salts such as listed above affords a less expensive composition that may be used in the present invention. However, the combination of CGP and one or more additional calcium salts may have solubility properties that are very different from that of CGP alone.

dissolution behaviour in aqueous solution [2]: readily dissolves, and stays dissolved
Substance: 1,2,3-propanetriol, mono(dihydrogen phosphate) calcium salt (1:1) [CGP]
solubility [1]: about 1 gram in about 50 mL of water
